Values quoted from earlier work as cited in patent publication US7604939B2, “Methods of identifying active BRM expression-promoting HDAC inhibitors” (The Regents of the University of Michigan, priority 2005, dated 2009).

Protein sequences, listed by entry. Tags and fused reporters are not part of them.
UniProt Q9BY41, whole entry: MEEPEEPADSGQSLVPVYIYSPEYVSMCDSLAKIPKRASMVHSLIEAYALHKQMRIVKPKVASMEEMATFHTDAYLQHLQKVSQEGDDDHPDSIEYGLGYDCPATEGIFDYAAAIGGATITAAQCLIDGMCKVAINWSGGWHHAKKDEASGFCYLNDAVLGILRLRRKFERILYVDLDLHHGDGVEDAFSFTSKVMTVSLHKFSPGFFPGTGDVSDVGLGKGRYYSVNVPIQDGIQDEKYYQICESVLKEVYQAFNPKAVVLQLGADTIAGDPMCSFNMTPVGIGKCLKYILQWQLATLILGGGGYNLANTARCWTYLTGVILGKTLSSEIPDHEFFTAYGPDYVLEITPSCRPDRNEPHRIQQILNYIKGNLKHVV
UniProt Q13547, whole entry: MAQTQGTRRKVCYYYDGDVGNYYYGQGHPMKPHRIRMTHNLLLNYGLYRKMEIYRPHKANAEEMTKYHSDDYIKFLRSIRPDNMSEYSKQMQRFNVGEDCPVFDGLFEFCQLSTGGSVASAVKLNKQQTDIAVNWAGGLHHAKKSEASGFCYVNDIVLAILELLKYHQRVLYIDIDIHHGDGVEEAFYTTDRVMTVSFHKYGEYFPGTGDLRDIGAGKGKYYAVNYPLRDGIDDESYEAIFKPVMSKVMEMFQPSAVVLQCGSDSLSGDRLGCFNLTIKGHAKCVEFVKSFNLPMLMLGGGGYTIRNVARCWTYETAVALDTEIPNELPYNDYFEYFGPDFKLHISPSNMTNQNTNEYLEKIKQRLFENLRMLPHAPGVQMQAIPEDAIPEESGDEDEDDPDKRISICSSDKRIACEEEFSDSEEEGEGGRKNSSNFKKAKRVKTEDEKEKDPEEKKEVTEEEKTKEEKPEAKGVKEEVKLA

Legend:
[1] = biological target: HDAC8 (Homo sapiens, UniProt Q9BY41); details: Class 1 HDAC; cited from earlier work
[2] = biological target: HDAC1 (Homo sapiens, UniProt Q13547); details: Class 1 HDAC; cited from earlier work

O=C1N[C@@H](Cc2ccccc2)C(=O)N2CCCC[C@@H]2C(=O)N[C@@H](CCCCCC(=O)[C@@H]2CO2)C(=O)N[C@H]1Cc1ccccc1
Sensitivity of HDAC8 to the inhibitor [1]: No: | Sensitivity of HDAC1 to the inhibitor [2]: Yes
